We go through two molecules from publication PMC11541501, “Development of a Candidate ^11C‑Labeled Selective Phosphodiesterase 1 Radioligand for Positron Emission Tomography” (ACS Omega, 2024).

Sequences of proteins named here, by UniProt entry; tags and fusion partners are left off.
UniProt Q01064, whole entry: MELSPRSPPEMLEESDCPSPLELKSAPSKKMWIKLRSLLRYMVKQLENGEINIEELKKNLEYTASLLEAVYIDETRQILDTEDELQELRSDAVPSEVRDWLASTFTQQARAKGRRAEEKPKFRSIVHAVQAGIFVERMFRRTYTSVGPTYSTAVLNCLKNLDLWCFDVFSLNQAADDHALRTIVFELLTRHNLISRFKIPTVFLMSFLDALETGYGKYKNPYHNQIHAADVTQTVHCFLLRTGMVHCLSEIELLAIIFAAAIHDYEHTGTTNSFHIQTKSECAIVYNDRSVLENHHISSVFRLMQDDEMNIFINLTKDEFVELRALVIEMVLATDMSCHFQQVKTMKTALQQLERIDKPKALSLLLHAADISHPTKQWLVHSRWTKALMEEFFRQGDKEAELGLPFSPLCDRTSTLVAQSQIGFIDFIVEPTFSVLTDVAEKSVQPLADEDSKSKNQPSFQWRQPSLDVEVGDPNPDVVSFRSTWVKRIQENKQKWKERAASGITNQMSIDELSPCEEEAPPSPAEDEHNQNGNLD

Assay [1] has as its target PDE1B (Homo sapiens, UniProt Q01064). The experiment in a line: PDE1B inhibition. The settings on record: read-out: PDE1B IC50. The class given is biochemical.
In assay [2] the test system is PDE1B. The assay can be described thus: In vitro autoradiography with [11C]PF-04822163 on rat brain sections, blocking. The settings on record: blocker 10 μM, [11C]PF-04822163 autoradiography.

The term IC50 denotes the concentration that gives 50% inhibition. With `COc1ccc2c([C@@H]3CCc4ccc(Cl)cc43)ncnc2c1OC`, the IC50 in assay [1] came out at 458 nM.
With `COc1ccc2c(N[C@@H](C)Cc3cc(C)[nH]n3)ncnc2c1OC`, the “decrease in radioactivity signal in PDE1B-rich regions” value in assay [2] is given as 24–51%.
